Measured values: patent US20100298300A1, “TRIAZOLOPYRAZINE COMPOUNDS USEFUL FOR THE TREATMENT OF DEGENERATIVE & INFLAMMATORY DISEASES” (priority 2006, published 2010)

Tests used:
[1] = system: MMP1 expression by activated primary synovial fibroblasts; assay: 'MMP assay': MMP1 expression by complex trigger activated synovial fibroblasts (MMP1 ELISA); format: cell-based; conditions: Homo sapiens, Fibroblast, Table 3, RASFs, 48 hrs
Experimental: A 384-well format ELISA for measurement of MMP1 is developed. Various primary antibodies are tested, as well as various ELISA protocols. The following protocol is developed and validated to measure MMP1 levels in SF supernatant in 384 well plates: white Lumitrac 600 384 well plates (Greiner) are coated with 2 μg/mL anti-MMP1 antibody MAB1346 (Chemicon). The antibody is diluted in buffer 40 (1.21 g Tris base (Sigma), 0.58 g NaCl (Calbiochem) and 5 ml 10% NaN3 (Sigma) in 1 L milliQ water and adjusted to pH 8.5). After overnight incubation at 4° C., plates are washed with PBS (80 g NaCl, 2 g KCl (Sigma), 11.5 g Na2HPO4.7H2O and 2 g KH2PO4 in 10 L milliQ; pH 7.4) and blocked with 100 μL/well Casein buffer (2% Casein (VWR International) in PBS). Next day, casein buffer is removed from ELISA plates and replaced by 50 μL/well EC buffer (4 g casein, 2.13 g Na2HPO4 (Sigma), 2 g bovine albumin (Sigma), 0.69 g NaH2PO4.H2O (Sigma), 0.5 g CHAPS (Roche), 23.3 g NaCl, 4 ml 0.5 M EDTA pH 8 (Invitrogen), 5 ml 10% NaN3 in 1 L milliQ and adjusted to pH 7.0). 0.25 mM DTT (Sigma) is added to the thawed samples plates. After removal of the EC buffer, 20 μL of sample is transferred to the ELISA plates. […] Readout is performed on the Luminoscan Ascent Luminometer (Labsystems) with an integration time of 200 msec or with an Envision reader (Perkin Elmer). […]

[2] = system: TNFα release by human PBMCs; assay: Cytokine release by LPS stimulated human PBMCs (TNFα ELISA); format: cell-based; conditions: PBMC, Table 5, LPS 1 μg/mL, 24 hr
Experimental: Human peripheral blood mononuclear cells (PBMCs) are isolated from “buffy coats” prepared from the blood of healthy volunteers, isolated essentially according to method of Bøyum (1984). In brief, buffy coat is diluted 1:1 with 1×PBS (Gibco) and 30 mL is carefully put on top of 20 mL Lymphoprep™ (Lucron Bioproducts) in 50 mL Falcon tubes. After centrifugation (35 min, 400 g, 18° C.) the mononuclear cells are collected from the white interphase and washed 3 times with 1×PBS by resuspending and centrifugation (10 min, 200 g). Isolated PBMCs are finally resuspended in RPMI 1640 (Cat. No. 21875, Gibco) that is supplemented with 10% heat-inactivated FBS (Hyclone). […]
The following 384-well chemiluminescent ELISA protocol was developed to measure TNFα levels in the supernatant: White Lumitrac 600 384-well plates (Greiner) are coated with (40 μL/well) anti-TNFα capture antibody (Cat. No. 551220, BD Pharmingen) that is diluted to 1 μg/mL in 1×PBS (Gibco). […] Readout is performed on the Luminoscan Ascent Luminometer (Labsystems) with an integration time of 100 msec delivering raw data (RLU: relative luminescence units). […] The percent inhibition (PIN) of the TNFα release, achieved by the compounds is then calculated based on the RLU data returned by the ELISA with following formula: 100−[((TNFα level compound X at concentration Y−minimal TNFα levels)/maximal TNFα levels−minimal TNFα levels))×100]. […]

Row | Structure (SMILES) | EC50 [1] | EC50 [2]
1 | c1nc2c(Nc3ccc(N4CCOCC4)cc3)ncc(-c3cn[nH]c3)n2n1 [Compound 1, (4-Morpholin-4-ylphenyl)-[5-(1H-pyrazol-4-yl)-[1,2,4]triazolo[1,5-a]pyrazin-8-yl]amine] | > 1 µM | > 1 µM
2 | O=C1NCc2cc(-c3cnc(Nc4ccc(N5CCOCC5)cc4)c4ncnn34)ccc21 [Compound 33, 5-(8-(4-Morpholinophenylamino)-[1,2,4]triazolo[1,5-a]pyrazin-5-yl)isoindolin-1-one] | 0.101 to 0.5 µM | > 1 µM
